Only a part is listed here, and it is no random draw. Calls of active or inactive are those of the source.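 The calls were made as follows: active = mean of duplicate membrane potential ratios lying over 3 SD above or below the buffer control mean, so actives fall on both sides; inactive = the rest.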

This assay in a line: membrane potential effects in parental HEK293, counter-screen for CHT inhibitor project, cell-based, membrane potential dye (AID 493222). The settings on record: choline response, at 10 µM.
On to `CCc1nc2c(n1)c1c(non1O)c1c2no[n+]1[O-]`, for which the ratio readout was inactive: 0.

Consider `NC(=O)c1cc([N+](=O)[O-])cc([N+](=O)[O-])c1N`, for which the ratio readout was inactive: 0.

Source of the values: PubChem BioAssay AID493222 (Johns Hopkins Ion Channel Center, 2011).
